PubChem BioAssay (NCI)
Where “and” joins values, the source holds several entries; their conditions need not be identical. Equal values may be shown once. The entries are a selection whose mix differs from that of the whole data set. Some of these compounds have results that are not shown, active ones among them.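 Cell lines were cultured in 96-well plates, exposed to a single compound concentration, and assessed for percent growth 48 hours later.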 Calls of active or inactive are those of the source. The calls were made as follows: active = growth percent below 10; inactive = the rest.

Experiments:
Experiment in all cases: NCI-60 one-dose screen, 48 h (100 = growth as untreated, 0 = no growth, -100 = all killed)
Conditions in all cases: 10 µM
HCT-15 colon = system: HCT-15 colon
HT29 colon = system: HT29 colon
SNB-75 CNS = system: SNB-75 CNS
SNB-19 CNS = system: SNB-19 CNS
U251 CNS = system: U251 CNS
PC-3 prostate = system: PC-3 prostate
SK-MEL-5 melanoma = system: SK-MEL-5 melanoma
UACC-62 melanoma = system: UACC-62 melanoma
LOX IMVI melanoma = system: LOX IMVI melanoma
SK-MEL-28 melanoma = system: SK-MEL-28 melanoma

Measured: growth

CC(C)(C)N(CCCl)CCCl
inactive: HCT-15 colon 92.5% | HT29 colon 86.3% | SNB-75 CNS 67.3% | SNB-19 CNS 101% | U251 CNS 89.9% | PC-3 prostate 98.3% | SK-MEL-5 melanoma 104% | UACC-62 melanoma 96.6% | LOX IMVI melanoma 102% | SK-MEL-28 melanoma 93.6%

Fc1cccc(CN(CCCl)CCCl)c1
inactive: HCT-15 colon 95.6% | HT29 colon 92.1% | SNB-75 CNS 81.1% | SNB-19 CNS 105% | U251 CNS 92.1% | PC-3 prostate 80.5% | SK-MEL-5 melanoma 102% | UACC-62 melanoma 96% | LOX IMVI melanoma 84.4% | SK-MEL-28 melanoma 99%

CCNCCCl
inactive: HCT-15 colon 98.5% | HT29 colon 104% | SNB-75 CNS 108% | SNB-19 CNS 107% | U251 CNS 103% | PC-3 prostate 109% | SK-MEL-5 melanoma 104% | UACC-62 melanoma 102% | LOX IMVI melanoma 99% | SK-MEL-28 melanoma 106%

ClCCCCCC(CCl)NCCCl (stereo not drawn)
inactive: HCT-15 colon 91.8% | HT29 colon 89.7% | SNB-75 CNS 93% | SNB-19 CNS 94.8% | U251 CNS 76.6% | PC-3 prostate 73.3% | SK-MEL-5 melanoma 86.6% | UACC-62 melanoma 67.2% | LOX IMVI melanoma 68.2% | SK-MEL-28 melanoma 105%

COc1ccc([N+](=O)[O-])cc1CN(CCCl)CCCl
inactive: HCT-15 colon 97.2% | HT29 colon 89.4% | SNB-75 CNS 82.5% | SNB-19 CNS 105% | U251 CNS 88.4% | PC-3 prostate 92.5% | SK-MEL-5 melanoma 98.5% | UACC-62 melanoma 95.6% | LOX IMVI melanoma 81.9% | SK-MEL-28 melanoma 113%

CN(CCBr)CCBr
inactive: HCT-15 colon 92.2% | HT29 colon 84% | SNB-75 CNS 82% | SNB-19 CNS 102% | U251 CNS 90.8% | PC-3 prostate 79.4% | SK-MEL-5 melanoma 100% | UACC-62 melanoma 88% | LOX IMVI melanoma 87.1% | SK-MEL-28 melanoma 99.7%

CCOc1ccc([N+](=O)[O-])cc1CN(CCCl)CCCl
inactive: HCT-15 colon 100% | HT29 colon 89.3% | SNB-75 CNS 94.7% | SNB-19 CNS 100% | U251 CNS 95.6% | PC-3 prostate 89.4% | SK-MEL-5 melanoma 100% | UACC-62 melanoma 92.7% | LOX IMVI melanoma 83.4% | SK-MEL-28 melanoma 106%

Cc1cc2nc(CN(CCCl)CCCl)[nH]c2cc1C
inactive: HCT-15 colon 98% | HT29 colon 79.1% | SNB-75 CNS 64.5% | SNB-19 CNS 87.3% | U251 CNS 77.4% | PC-3 prostate 90.4% | SK-MEL-5 melanoma 92.4% | UACC-62 melanoma 67% | LOX IMVI melanoma 61.1% | SK-MEL-28 melanoma 113%

N#CC(C#N)=Cc1cccc(Br)c1
inactive: HCT-15 colon 112% | HT29 colon 112% | SNB-19 CNS 102% | U251 CNS 96.6% | PC-3 prostate 93.8% | SK-MEL-5 melanoma 98.9% | UACC-62 melanoma 101% | LOX IMVI melanoma 96.2% | SK-MEL-28 melanoma 110%

CC(=O)CI
inactive: HCT-15 colon 97.8% | HT29 colon 109% | SNB-75 CNS 88.3% | SNB-19 CNS 124% | U251 CNS 99.3% | PC-3 prostate 101% | SK-MEL-5 melanoma 105% | UACC-62 melanoma 101% | LOX IMVI melanoma 94% | SK-MEL-28 melanoma 105%

CCCN(CCCl)CCCl
inactive: HCT-15 colon 101% | HT29 colon 110% | SNB-75 CNS 71.5% | SNB-19 CNS 111% | U251 CNS 103% | PC-3 prostate 95.3% | SK-MEL-5 melanoma 105% | UACC-62 melanoma 95.7% | LOX IMVI melanoma 101% | SK-MEL-28 melanoma 104%

ClCCN(CCCl)Cc1cc(Cl)cc(Cl)c1
inactive: HCT-15 colon 81% | HT29 colon 67.6% | SNB-75 CNS 66.7% | SNB-19 CNS 84.2% | U251 CNS 59.2% | PC-3 prostate 56.6% | SK-MEL-5 melanoma 94.6% | UACC-62 melanoma 62.5% | LOX IMVI melanoma 55.5% | SK-MEL-28 melanoma 87.4%

BrCCN(CCBr)Cc1ccccc1
inactive: HCT-15 colon 103% | HT29 colon 93.6% | SNB-75 CNS 76.3% | SNB-19 CNS 118% | U251 CNS 106% | PC-3 prostate 84.5% | SK-MEL-5 melanoma 113% | UACC-62 melanoma 107% | LOX IMVI melanoma 107% | SK-MEL-28 melanoma 104%

CN(C)CCOC(=O)C(O)(c1ccccc1)c1ccccc1
inactive: HCT-15 colon 92.8% | HT29 colon 118% | SNB-75 CNS 93.1% | SNB-19 CNS 112% | U251 CNS 103% | PC-3 prostate 106% | SK-MEL-5 melanoma 108% | UACC-62 melanoma 106% | LOX IMVI melanoma 110% | SK-MEL-28 melanoma 112%

O=C(OCCN1CCCC1)C(O)(c1ccccc1)c1ccccc1
inactive: HCT-15 colon 113% | HT29 colon 106% | SNB-75 CNS 95.8% | SNB-19 CNS 99.8% | PC-3 prostate 93.1% | SK-MEL-5 melanoma 107% | UACC-62 melanoma 83.1% | LOX IMVI melanoma 99.9% | SK-MEL-28 melanoma 114%

N#CC(C#N)=Cc1ccccc1Cl
inactive: HCT-15 colon 107% | HT29 colon 118% | SNB-75 CNS 97.3% | SNB-19 CNS 103% | U251 CNS 103% | PC-3 prostate 104% | SK-MEL-5 melanoma 102% | UACC-62 melanoma 95.6% | LOX IMVI melanoma 87.8% | SK-MEL-28 melanoma 113%

ClCCN(CCCl)Cc1ccc(Cl)c(Cl)c1
inactive: HCT-15 colon 97.4% | HT29 colon 100% | SNB-75 CNS 97.9% | SNB-19 CNS 104% | U251 CNS 85.1% | PC-3 prostate 93.8% | SK-MEL-5 melanoma 100% | UACC-62 melanoma 105% | LOX IMVI melanoma 95.5% | SK-MEL-28 melanoma 109%

ClCCN(CCCl)Cc1ccsc1Br
inactive: HCT-15 colon 90.5% | HT29 colon 87.1% | SNB-75 CNS 80.6% | SNB-19 CNS 98.9% | U251 CNS 69.6% | PC-3 prostate 69.8% | SK-MEL-5 melanoma 96.6% | UACC-62 melanoma 83.5% | LOX IMVI melanoma 66.5% | SK-MEL-28 melanoma 93.7%

COCc1c(CN(CCCl)CCCl)cnc(C)c1O
inactive: HCT-15 colon 116% | HT29 colon 97.4% | SNB-75 CNS 90.5% | SNB-19 CNS 100% | U251 CNS 96.9% | PC-3 prostate 82.1% | SK-MEL-5 melanoma 95.5% | UACC-62 melanoma 86.5% | LOX IMVI melanoma 83.6% | SK-MEL-28 melanoma 111%

COc1ccc(N=C=S)cc1CN(CCCl)CCCl
inactive: HCT-15 colon 76.4% | HT29 colon 47.4% | SNB-75 CNS 63.3% | SNB-19 CNS 72.8% | U251 CNS 54.3% | PC-3 prostate 59.2% | SK-MEL-5 melanoma 86.3% | UACC-62 melanoma 35.6% | LOX IMVI melanoma 34.2% | SK-MEL-28 melanoma 101%

CC[N+](C)(C)Cc1cccc(Cc2ccccc2)c1OC(=O)N(C)C
inactive: HCT-15 colon 101% | HT29 colon 106% | SNB-75 CNS 108% | SNB-19 CNS 106% | U251 CNS 100% | PC-3 prostate 98.6% | SK-MEL-5 melanoma 102% | UACC-62 melanoma 100% | LOX IMVI melanoma 96.9% | SK-MEL-28 melanoma 111%

ClCCN(CCCl)C1CCCCC1
inactive: HCT-15 colon 95.6% | HT29 colon 104% | SNB-75 CNS 94.7% | SNB-19 CNS 102% | U251 CNS 101% | PC-3 prostate 96.9% | SK-MEL-5 melanoma 96.7% | UACC-62 melanoma 91.1% | LOX IMVI melanoma 93.9% | SK-MEL-28 melanoma 97.2%

ClCCN(CCCl)C1c2ccccc2-c2ccccc21
inactive: HCT-15 colon 100% | HT29 colon 64.1% | SNB-75 CNS 80.6% | SNB-19 CNS 96.2% | U251 CNS 81.4% | PC-3 prostate 78.4% | SK-MEL-5 melanoma 91% | UACC-62 melanoma 83.3% | LOX IMVI melanoma 85% | SK-MEL-28 melanoma 106%

N#CC(C#N)=Cc1ccc(Br)cc1
inactive: HCT-15 colon 108% and 103% | HT29 colon 106% and 105% | SNB-75 CNS 113% | SNB-19 CNS 107% and 97.9% | U251 CNS 99.5% and 100% | PC-3 prostate 98.9% and 100% | SK-MEL-5 melanoma 99.2% and 97.9% | UACC-62 melanoma 99.5% and 94.6% | LOX IMVI melanoma 98.2% and 96.1% | SK-MEL-28 melanoma 112%
